From US20140227357A1, “FILL FORMULATIONS AND CAPSULES AND METHOD OF USE TO AVOID MIGRATION OF FILL INTO OR THROUGH THE SHELL” (CAPSUGEL BELGIUM NV, priority 2011, published 2014)

Test: Technical batch stability study, 2-butanol and 2-pentanone assay by gas chromatography
Format: physicochemical
Settings: in Formulation 4, sealed LICAPS; 6 months at 25° C./60% RH in PE bags

## CCCC(C)=O [Formulation 2-pentanone, 2-pentanone]
  assay, % label claim: 100.7%
